Experimental data taken from PMC10017155, “Zn-dependent β-amyloid Aggregation and its Reversal by the Tetrapeptide HAEE” (Aging and Disease, 2023).
“Also recorded” adds a separate entry of the source.

Key:
Assay type in all cases: in vivo
C. elegans CL2120 [1] = test: Paralysis assay in C. elegans CL2120; conditions: for Mean fraction of paralyzed: Aβ42 or isoD7-Aβ42 40 μM, HAEE 4 mM, 25°C, mean ± SD of 3 experiments
Experimental: (§1) C. elegans CL2120 (dvIs14 [(pCL12) unc-54::beta 1-42 +(pCL26) mtl-2::GFP]) and C. elegans CL2122 (dvIs15 [(pPD30.38) unc-54(vector) + (pCL26) mtl-2::GFP]) strains were obtained from the Caenorhabditis Genetics Center. The worms were handled according to standard methods without FUDR [18]. E. coli OP50 bacteria were grown overnight in Luria-Bertani broth and 50µl were spread atop NGM or NGMZn plates. NGMZn has 20μM ZnSO4. Seeded plates were incubated at 30°C for ~16 hours and then for 1-2 hours at 15 or 25°C before worms were transferred. Lifespan and paralysis experiments (see below) were performed at 25°C for enhanced expression of Aβ. This temperature is standard when studying the effects of Aβ on C. elegans CL2120 strain [19].
Then, nematodes were transferred to Petri plates with NGM or NGMZn and OP-50, placed in a temperature-controlled incubator at 25°C. On the next day, worms were transferred onto similar media with a bacterial substrate and paralyzed nematodes were counted at equal time intervals. […] For the paralysis experiments, we chose the days where we could clearly distinguish between paralysis and mortality. This conformed to the third and fourth days of their adult life. While at least three repeated trials were conducted, each experiment was performed using at least 100 worms. Details regarding repeated experiments and amounts of animals used for experiments are summarized in Supplementary Table 2. Mean fraction of paralyzed worms was compared between groups with two-way ANOVA, accounting for age and treatment. Post-hoc analysis was performed with the Tukey test. Statistical analysis was performed with GraphPad Prism 9.1 software.

C. elegans CL2122 = test: Lifespan analysis, C. elegans CL2122 (transgenic control); conditions: for Mean survival: Aβ42 or isoD7-Aβ42 40 μM, HAEE 4 mM; for Mean survival / Effect on lifespan: 25°C; for Mean survival / Mean increase/decrease in lifespan: mean ± SD of 3 experiments; for Increase/decrease in lifespan: vs control of same repeat
Experimental: as §1
(§2) Nematodes were purified from unwanted microflora by the alkaline hypochlorite method, grown to the L4 stage at 15°C on NGM plates with bacterial lawn. […] Further, all contents were transferred to Petri plates with NGM or NGMZn with OP50 and placed in a temperature-controlled incubator at 25°C. Next day, worms were transferred onto similar media with a bacterial substrate and the lifespan was determined at 25°C (Supplementary Tables 3, 4).
(§3) Lifespans were monitored at 25°C as described previously. All experiments were repeated at least three times and ≈130 worms were used for each experiment. Details regarding repeated experiments and amounts of animals used for experiments are summarized in Supplementary Tables 3, 4. In all cases, stage L4 worms were used at t = 0 for lifespan analyses and worms were transferred every other day to new agar plates. […] Escaped animals or animals with internal hatching were not included in lifespan calculation. Data was analyzed and Boltzmann sigmoid survival curves generated using the SciDAVis statistical analysis software package. Mean lifespans were compared in Microsoft Excel using the Student t test, applying one-tailed distribution and two-sample equal variance. All lifespan plots represent the composites of all independent experiments tabulated in Supplementary Tables 3, 4. Mean percentage change ±SD of lifespan after treatment, relative to untreated control are indicated in each graph in the same color as the curve.

C. elegans CL2120 [2] = test: Amyloid load by X-34 staining in C. elegans CL2120
Experimental: as §1, §2
Post-hoc analysis was performed with the Tukey test.
Figure 2.

C. elegans CL2120 [3] = test: Lifespan analysis, C. elegans CL2120; conditions: for Mean survival: Aβ42 or isoD7-Aβ42 40 μM, HAEE 4 mM; for Mean survival / Effect on lifespan: 25°C; for Increase/decrease in lifespan: vs control of same repeat
Experimental: as §1, §2, §3

[4] = A4 (4 days old), NGM (no Zn), replicate 3
[5] = CL2122, NGM (no Zn), replicate 1
[6] = CL2122, NGM (no Zn), replicate 2
[7] = CL2122, NGM (no Zn), replicate 3
[8] = CL2120, NGM (no Zn), replicate 1
[9] = CL2120, NGM (no Zn), replicate 2
[10] = CL2120, NGM (no Zn), replicate 3

In the case of `CC(=O)N[C@@H](Cc1c[nH]cn1)C(=O)N[C@@H](C)C(=O)N[C@@H](CCC(=O)O)C(=O)N[C@@H](CCC(=O)O)C(N)=O` [HAEE, Ac-HAEE-NH2], the Fraction of paralyzed (C. elegans CL2120 [1]; [4]) is reported as 10.8% and the Mean survival (C. elegans CL2122; CL2122, NGMZn (ZnSO4 20 μM)) is reported as 8.93 ± 0.15 days.
“DAEFRHDSGYEVHHQKL VFFAEDVGSNKGAIIGLMVGGVVIA [Aβ42, synthetic beta-amyloid 1-42 peptide]” was tested, and the “Mean fraction of paralyzed” value (C. elegans CL2120 [1]; A3 (3 days old), NGM (no Zn)) was 6.2±0.51%, the Fraction of paralyzed (C. elegans CL2120 [1]; A3 (3 days old), NGM (no Zn), replicate 1) was 5.6% and the Fraction of paralyzed (C. elegans CL2120 [1]; A3 (3 days old), NGM (no Zn), replicate 2) was 6.3%. The Fraction of paralyzed (C. elegans CL2120 [1]; A3 (3 days old), NGM (no Zn), replicate 3) was 6.6%, the “Mean fraction of paralyzed” value (C. elegans CL2120 [1]; A3 (3 days old), NGMZn (ZnSO4 20 μM)) was 4.9±0.4% and the Fraction of paralyzed (C. elegans CL2120 [1]; A3 (3 days old), NGMZn, replicate 1) was 5.3%. The Fraction of paralyzed (C. elegans CL2120 [1]; A3 (3 days old), NGMZn, replicate 2) was 4.8%, the Fraction of paralyzed (C. elegans CL2120 [1]; A3 (3 days old), NGMZn, replicate 3) was 4.5% and the “Mean fraction of paralyzed” value (C. elegans CL2120 [1]; A4 (4 days old), NGM (no Zn)) was 10.9±0.66%. It also gave a Fraction of paralyzed (C. elegans CL2120 [1]; A4 (4 days old), NGM (no Zn), replicate 1) of 10.8%, a Fraction of paralyzed (C. elegans CL2120 [1]; A4 (4 days old), NGM (no Zn), replicate 2) of 11.6% and a Fraction of paralyzed (C. elegans CL2120 [1]; [4]) of 10.3%. The “Mean fraction of paralyzed” value (C. elegans CL2120 [1]; A4 (4 days old), NGMZn (ZnSO4 20 μM)) was 9.6±0.47%, the Fraction of paralyzed (C. elegans CL2120 [1]; A4 (4 days old), NGMZn, replicate 1) was 9.4% and the Fraction of paralyzed (C. elegans CL2120 [1]; A4 (4 days old), NGMZn, replicate 2) was 10.1%. For the same compound, the Fraction of paralyzed (C. elegans CL2120 [1]; A4 (4 days old), NGMZn, replicate 3) was 9.2%, the “Effect on paralysis with Zn2+” value (C. elegans CL2120 [1]; peptide 40 μM + Zn2+, NGMZn) was “not observed; also recorded: not detected” and the “Amyloid load, Aβ42 with Zn2+” value (C. elegans CL2120 [2]; Aβ42 40 µM, NGMZn) was “did not show any increase in the amyloid load; also recorded: not detected”. For the same compound, the “Amyloid load, without Zn2+” value (C. elegans CL2120 [2]; peptide 40 µM, NGM without Zn2+) was “did not show any increase in the amyloid load”, the Mean survival (C. elegans CL2122; CL2122, NGM (no Zn)) was 8.93 ± 0.42 days and the 50% survival (C. elegans CL2122; [5]) was 9.4 days. For the same compound, the 50% survival (C. elegans CL2122; [6]) was 8.6 days, the 50% survival (C. elegans CL2122; [7]) was 8.8 days and the “Mean increase/decrease in lifespan” value (C. elegans CL2122; CL2122, NGM (no Zn), vs control NGM) was -1.50±3.36%. The Increase/decrease in lifespan (C. elegans CL2122; [5]) was 2.17%, the Increase/decrease in lifespan (C. elegans CL2122; [6]) was -4.44% and the Increase/decrease in lifespan (C. elegans CL2122; [7]) was -2.22%. For the same compound, the “Effect on lifespan” value (C. elegans CL2122; CL2122, NGM, without Zn2+) was “does not affect; also recorded: did not affect the mean lifespan”, the Mean survival (C. elegans CL2122; CL2122, NGMZn (ZnSO4 20 μM)) was 8.97 ± 0.15 days and the 50% survival (C. elegans CL2122; CL2122, NGMZn, replicate 1) was 9.1 days. The 50% survival (C. elegans CL2122; CL2122, NGMZn, replicate 2) was 8.8 days, the 50% survival (C. elegans CL2122; CL2122, NGMZn, replicate 3) was 9.0 days and the “Mean increase/decrease in lifespan” value (C. elegans CL2122; CL2122, NGMZn, vs control NGMZn) was -0.68±3.9%. It also gave an Increase/decrease in lifespan (C. elegans CL2122; CL2122, NGMZn, replicate 1) of 3.41%, an Increase/decrease in lifespan (C. elegans CL2122; CL2122, NGMZn, replicate 2) of -4.35% and an Increase/decrease in lifespan (C. elegans CL2122; CL2122, NGMZn, replicate 3) of -1.10%. For the same compound, the “Effect on lifespan” value (C. elegans CL2122; CL2122, NGMZn, with Zn2+ (20 μM)) was “does not affect; also recorded: did not affect the mean lifespan”, the Mean survival (C. elegans CL2120 [3]; CL2120, NGM (no Zn), mean ± SD of 3 experiments) was 8.8 ± 0.26 days and the 50% survival (C. elegans CL2120 [3]; [8]) was 8.9 days. For the same compound, the 50% survival (C. elegans CL2120 [3]; [9]) was 9.0 days, the 50% survival (C. elegans CL2120 [3]; [10]) was 8.5 days and the “Mean increase/decrease in lifespan” value (C. elegans CL2120 [3]; CL2120, NGM (no Zn), vs control NGM, mean ± SD of 3 experiments) was 1.54±1.78%. The Increase/decrease in lifespan (C. elegans CL2120 [3]; [8]) was 3.49%, the Increase/decrease in lifespan (C. elegans CL2120 [3]; [9]) was 1.12% and the Increase/decrease in lifespan (C. elegans CL2120 [3]; [10]) was 0%. The “Effect on lifespan” value (C. elegans CL2120 [3]; CL2120, NGM, without Zn2+) was “does not affect; also recorded: did not affect the mean lifespan”, the Mean survival (C. elegans CL2120 [3]; CL2120, NGMZn (ZnSO4 20 μM), mean ± SD of 3 (isoD7-Aβ42: 5) experiments) was 8.57 ± 0.4 days and the 50% survival (C. elegans CL2120 [3]; CL2120, NGMZn, replicate 1) was 8.5 days. For the same compound, the 50% survival (C. elegans CL2120 [3]; CL2120, NGMZn, replicate 2) was 8.2 days, the 50% survival (C. elegans CL2120 [3]; CL2120, NGMZn, replicate 3) was 9.0 days and the “Mean increase/decrease in lifespan” value (C. elegans CL2120 [3]; CL2120, NGMZn, vs control NGMZn, mean ± SD of 3 (isoD7-Aβ42: 5) experiments) was -1.48±4.09%. The Increase/decrease in lifespan (C. elegans CL2120 [3]; CL2120, NGMZn, replicate 1) was 2.41%, the Increase/decrease in lifespan (C. elegans CL2120 [3]; CL2120, NGMZn, replicate 2) was -5.75% and the Increase/decrease in lifespan (C. elegans CL2120 [3]; CL2120, NGMZn, replicate 3) was -1.10%. For the same compound, the “Effect on lifespan” value (C. elegans CL2120 [3]; CL2120, NGMZn, with Zn2+ (20 μM)) was “does not affect; also recorded: did not affect the mean lifespan; also recorded: not detected”.
